System: Canis familiaris
Test: Clearance in dog at 0.25 mg/kg, iv
Assay type: ADME, organism-based, Canis lupus familiaris
Design: dose 0.25 mg/kg, route intravenous
Conditions: in vivo

CL: 2.1 mL/mg/kg
SMILES: O=C(N[C@H]1CCC[C@@H]1OCc1ccccc1)C1CCN(c2nc3cc(Cl)ccc3o2)CC1
